For this assay, the target named is Mcl-1 (Homo sapiens, UniProt Q07820). Description: FPA competition assay, inhibition of Mcl-1 / FITC-Mcl-BH3 binding. The settings on record: 250 nM Mcl-1 and 250 nM FITC-Mcl-BH3 probe, pH 7.5, cells printed in nM. The source says:
Experiment 1 the Inhibition Assay of Compounds 1˜12 to Mcl-1
FPA competition assays were adopted to evaluate the binding affinity of compounds to Mcl-1. The FITC labelled BH3 peptide of Mcl-1 (FITC-Mcl-BH3, FITC-AHx-KALETLRRVGD GVQRNHITAF-NH2) was synthesized and used as fluorescence probe in the FPA competition assays. The binding of FITC-Mcl-BH3 and Mcl-1 can enhance the polarized light. While the binding of compounds and Mcl-1 would reduce the polarization, IC50 is the compound concentration that displaces 50% of the fluorescent ligand from the ligand-receptor complex.
All assays were performed in the assay buffer (pH 7.5) composed of 20 mM Tris, 50 mM NaCl, 3 mM DTT and 2% DMSO. The FPA competition assays were carried out in the 96-well, black, flat-bottom plates (Nunc). To check the interference effects of candidate compounds on the interaction between Mcl-1 and FITC-Mcl-BH3, solutions containing 250 nM Mcl-1 and 250 nM fluorescence probes were titrated with […] selected compounds (0-128 μM, 2-times gradient) dissolved in the assay buffer. The emission fluorescence changes were recorded from 480 to 540 nm by TECAN Infinite M1000 Microplate Spectrophotometer with excitation wavelength being 450 nm. The IC50 were calculated.

Amino acid sequences for entries named in this document (tags omitted).
UniProt Q07820, whole entry: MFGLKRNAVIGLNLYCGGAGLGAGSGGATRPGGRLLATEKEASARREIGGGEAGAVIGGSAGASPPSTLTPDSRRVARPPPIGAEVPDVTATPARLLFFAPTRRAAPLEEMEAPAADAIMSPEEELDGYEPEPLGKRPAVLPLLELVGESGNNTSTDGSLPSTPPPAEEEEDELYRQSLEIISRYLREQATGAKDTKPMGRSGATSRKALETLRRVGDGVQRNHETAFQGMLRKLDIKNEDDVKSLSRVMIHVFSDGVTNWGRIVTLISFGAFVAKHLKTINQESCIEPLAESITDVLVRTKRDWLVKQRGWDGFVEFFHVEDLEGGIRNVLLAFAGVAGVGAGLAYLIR

Three compounds from US20190062322A1, “PUMA INHIBITOR, METHOD FOR PREPARATION THEREOF, AND USE THEREOF” (FOURTH MILITARY MEDICAL UNIVERSITY, priority 2016, published 2019) can be followed below.

Regarding `O=C1N=C(N2CCC(CCO)CC2)S/C1=C\c1ccc(-c2ccccc2)cc1`, the half-maximal inhibitory concentration (IC50) (usually the concentration that gives 50% inhibition) turned out to be 5.68 nM. That is a single-digit nanomolar value.

As to `Cc1ccc(/C=C2\SC(N3CCC(CCO)CC3)=NC2=O)cc1`, the IC50 was found to be 4.77 nM. In turn, `O=C1N=C(N2CCN(CCO)CC2)S/C1=C\c1ccccc1` yielded an IC50 of 295 nM. This IC50 lies about 62-fold higher than the previous one.
